The chains behind the UniProt entries cited, without tags or fusion partners. Residues count along the entry.
Melanocortin receptor 4 (Homo sapiens), P32245, UniProt P32245, whole entry, looked up: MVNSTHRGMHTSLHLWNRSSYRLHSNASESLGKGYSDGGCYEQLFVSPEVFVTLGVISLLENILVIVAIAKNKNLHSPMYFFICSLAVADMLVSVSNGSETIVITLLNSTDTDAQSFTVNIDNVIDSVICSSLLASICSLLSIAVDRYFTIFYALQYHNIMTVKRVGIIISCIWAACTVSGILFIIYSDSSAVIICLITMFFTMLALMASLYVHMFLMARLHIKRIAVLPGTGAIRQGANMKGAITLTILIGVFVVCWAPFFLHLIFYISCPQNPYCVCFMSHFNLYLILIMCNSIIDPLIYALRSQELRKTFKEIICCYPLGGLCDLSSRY
Neuropilin-1 (Homo sapiens), O14786, UniProt O14786, whole entry, looked up: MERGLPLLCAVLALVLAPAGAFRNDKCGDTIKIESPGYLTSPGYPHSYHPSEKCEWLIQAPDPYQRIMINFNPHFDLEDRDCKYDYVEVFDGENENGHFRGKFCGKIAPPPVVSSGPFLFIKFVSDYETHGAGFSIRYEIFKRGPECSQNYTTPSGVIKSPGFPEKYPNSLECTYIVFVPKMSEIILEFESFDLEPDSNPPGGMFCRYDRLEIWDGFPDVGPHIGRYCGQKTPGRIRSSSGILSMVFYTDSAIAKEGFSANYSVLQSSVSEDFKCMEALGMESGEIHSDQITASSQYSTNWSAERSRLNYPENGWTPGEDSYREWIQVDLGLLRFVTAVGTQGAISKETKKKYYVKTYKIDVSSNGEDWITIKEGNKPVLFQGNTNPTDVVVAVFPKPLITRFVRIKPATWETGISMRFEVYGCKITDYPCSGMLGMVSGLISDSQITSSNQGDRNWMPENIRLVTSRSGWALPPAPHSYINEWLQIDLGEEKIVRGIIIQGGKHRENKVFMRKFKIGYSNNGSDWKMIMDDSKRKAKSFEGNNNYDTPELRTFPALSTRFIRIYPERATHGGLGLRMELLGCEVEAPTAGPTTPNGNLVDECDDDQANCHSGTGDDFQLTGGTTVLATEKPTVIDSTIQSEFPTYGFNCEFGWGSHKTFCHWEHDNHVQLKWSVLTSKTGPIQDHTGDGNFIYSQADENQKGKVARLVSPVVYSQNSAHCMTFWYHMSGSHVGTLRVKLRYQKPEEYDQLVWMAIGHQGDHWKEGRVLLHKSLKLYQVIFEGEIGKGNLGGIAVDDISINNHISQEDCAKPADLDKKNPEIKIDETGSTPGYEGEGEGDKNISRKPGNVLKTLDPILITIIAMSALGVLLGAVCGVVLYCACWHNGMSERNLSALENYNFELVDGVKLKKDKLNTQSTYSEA
ADP-ribosylation factor GTPase-activating protein 1 (Rattus norvegicus), Q62848, UniProt Q62848, whole entry, looked up: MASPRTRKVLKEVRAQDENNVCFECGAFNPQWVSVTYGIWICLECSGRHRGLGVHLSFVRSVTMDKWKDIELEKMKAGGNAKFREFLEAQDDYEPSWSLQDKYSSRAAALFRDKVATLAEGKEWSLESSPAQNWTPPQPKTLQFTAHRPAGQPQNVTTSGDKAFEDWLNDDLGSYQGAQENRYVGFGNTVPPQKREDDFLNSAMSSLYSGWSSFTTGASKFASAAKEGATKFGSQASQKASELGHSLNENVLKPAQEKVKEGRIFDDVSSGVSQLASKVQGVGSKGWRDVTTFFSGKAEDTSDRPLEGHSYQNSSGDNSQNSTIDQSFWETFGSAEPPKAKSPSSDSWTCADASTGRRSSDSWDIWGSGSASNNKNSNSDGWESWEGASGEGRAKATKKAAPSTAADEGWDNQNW
ADP-ribosylation factor GTPase-activating protein 1 (Rattus norvegicus), Q62848, UniProt Q62848, 1-136 limits assumed: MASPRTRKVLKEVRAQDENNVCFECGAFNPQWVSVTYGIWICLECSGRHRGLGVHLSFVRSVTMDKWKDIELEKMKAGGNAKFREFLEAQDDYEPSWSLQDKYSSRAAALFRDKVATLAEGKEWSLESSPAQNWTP

# ASAP1 inh – inhibitors of human ASAP1 ArfGAP activity, primary screen, biochemical, fluorescence polarization; inhibition, % at 16.5 µM; actives 0.19% (n = 360,000); ASAP1-stimulated ARF1 GTP hydrolysis, GDP FP detection; AID 624377, 2012; Arf-GAP with SH3 domain, ANK repeat and PH domain-containing protein 1 (Homo sapiens), …; in the data active = inhibition above about 25%;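 also: 0% = vehicle with enzyme and substrate and 100% = no enzyme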
# MC4R barr agon – MC4R agonists recruiting beta-arrestin, primary screen, cell-based, luminescence, agonist arm of biased-ligand search; Melanocortin receptor 4 (Homo sapiens), P32245; U2OS MC4R beta-arrestin complementation; percent of melanotan II response, DMSO zero; activation, % at 8.9 µM; actives 0.98% (n = 360,000); AID 540308, 2011;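 active = activation above a per-plate cutoff, the mean activation of sample wells on that plate plus 3 SD, cut at about 8% in these data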
# NRP1-CendR mod – modulators of CendR peptide binding to NRP-1, primary screen, biochemical, fluorescence polarization, uHTS; Neuropilin-1 (Homo sapiens), O14786; FAM-RPARPAR peptide binding to NRP-1; inhibition, % at 25 µM; actives 0.85% (n = 360,000);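 active = inhibition or corrected inhibition above about 18%, plus a signal ratio from 0.5 to 1.5, limit read from the data, passing the limit was not always enough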
# ARFGAP1 inhibitor – inhibitors of rat ARFGAP1 GAP activity, primary screen, biochemical, fluorescence polarization, GDP tracer | ADP-ribosylation factor GTPase-activating protein 1 (Rattus norvegicus), Q62848 | Arfgap1-stimulated ARF1 GTP hydrolysis, GDP FP detection | inhibition, % at 16.5 µM | actives 0.26% (n = 360,000);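 active = inhibition above a per-plate limit, mean inhibition of low control wells plus 3 SD, cut at about 25% in these data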;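 also: 0% = DMSO wells with enzyme and 100% = wells lacking Arfgap1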
#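 System: truncated rat Arfgap1 GAP domain / Medium: HEPES-based buffer, pH 7.5 / Also added: N-terminally truncated human ARF1-GTP substrate / Incubation: enzyme reaction 120 min at 25 °C after 20 min preincubation / Measured by: FP of antibody-bound GDP Alexa 633 tracer, ex 620/em 688 nm / Replicates: singlicate, each compound tested once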
# MC4R antagonist – MC4R antagonists of cAMP signaling, primary screen, cell-based, TR-FRET, antagonist arm of biased-ligand search; MC4R-expressing cells, MTII-stimulated cAMP, LANCE TR-FRET; inhibition, % at 6.5 µM; actives 0.48% (n = 360,000); AID 540295, 2011;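 active = inhibition above its plate's cutoff, the mean of tested wells on that plate plus 3 SD, cut at about 29% in these data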;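 also: 0% = Melanotan II alone and 100% = Melanotan II plus saturating MCL0020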
#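 Material: human MC4R-expressing U2OS cells. Probe or stimulus: Melanotan II challenge. Dosing: 6.5 µM single dose. Times: 30-min compound, 1-h challenge, 1-h detection, room temperature. Technique: TR-FRET with Eu-cAMP and labeled anti-cAMP, 671 nm. Replication: singlicate.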
# UUG fidelity – modulators of start codon recognition fidelity in yeast; S. cerevisiae UUG-firefly luciferase reporter, luminescence/redox ratio; activity score, % at 18.7 µM; hit rate 0.13% among 350,000; AID 602363;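 active = replicate mean at a twofold rise or more, about +100% in these data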;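 note: firefly luciferase made from a UUG start codon reports start codon fidelity; reporter light over untreated wells divided by growth signal over untreated wells; some hits fall short of that in this replicate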
# MC4R barr ag – MC4R beta-arrestin agonists, retest, confirmation, cell-based, luminescence, U2OS; AID 602192, 2012; activation, % at 8.9 µM; actives 31% (n = 2,400); U2OS MC4R beta-arrestin recruitment; scaled DMSO 0%, Melanotan II 100%; shares compounds with MC4R barr agon;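 active = mean activation across replicates above the hit cutoff set in the earlier primary screen, cut at about 8% in these data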
# MOR DOR agonist – agonists of MOR-DOR heterodimerization, counter-screen for MC4R biased agonist project, cell-based, luminescence; activation, % at 9.2 µM; U2OS PathHunter beta-arrestin, beta-gal luminescence; percent of deltorphin B response, DMSO zero; actives 5.8% (n = 2,400); shares compounds with MC4R barr agon;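 active = mean activation across replicates exceeds the hit threshold derived in the earlier primary screen, cut at about 18% in these data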;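 also: 100% = deltorphin B at 0.9 µM final and 0% = DMSO alone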
# An asterisk follows results filed as active; . = no result given. Compounds with a hit are over-represented: about 2.3% of the library has one in this group of screens.
entry	molecule	NRP1-CendR mod	MOR DOR agonist	UUG fidelity	ASAP1 inh	MC4R barr agon	ARFGAP1 inhibitor	MC4R barr ag	MC4R antagonist
1	CC(C)(C)C1CCc2c(sc(NC(=O)c3cc(C4CC4)on3)c2C#N)C1 (stereo unspecified)	-10	.	-22	-3	0	5	.	-6
2	O=C(CSc1ccc(F)cc1)Nc1ccc(C2SCCS2)cc1	-9	2	-23	12	10*	6	0	11
3	Cc1ccc(C(=O)NCCc2cc3ccc(C)c(C)c3[nH]c2=O)cc1[N+](=O)[O-]	10	3	.	7	9.6*	4	1	7
4	C[C@H](CO)N1C[C@H](C)[C@H](CN(C)S(=O)(=O)c2ccc(Cl)cc2)Oc2ccc(NS(=O)(=O)c3ccccc3)cc2CC1=O	.	.	-5	.	.	.	.	.
5	COc1ccc(-c2cc3cccc(OC)c3oc2=O)cc1	0	.	-58	13	-1	7	.	-4
6	COc1ccc(Nc2nc(-c3cc4cccc(OC)c4oc3=O)cs2)cc1	-4	5	.	2	20*	-6	5	-3
7	Cc1ccc(CNC(=O)c2ccc3c(=O)c(O)c(-c4ccc(C)cc4)[nH]c3c2)cc1	17	9	-22	-13	13*	0	1	5
8	C[C@H]1CN([C@@H](C)CO)C(=O)c2cc(/C=C/c3ccccc3)cnc2O[C@@H]1CN(C)C(=O)c1ccc2c(c1)OCO2	.	.	2	.	.	.	.	.
9	C#CCn1c(=NC(=O)c2ccco2)sc2cccc(Cl)c21	-12	11	.	1	33*	11	5	-8
10	C[C@H](CO)N1C[C@H](C)[C@H](CN(C)C(=O)Nc2ccc(C(F)(F)F)cc2)Oc2c(NS(C)(=O)=O)cccc2C1=O	.	.	-4	.	.	.	.	.
11	C[C@@H]1CN([C@@H](C)CO)C(=O)Cc2cc(NS(=O)(=O)c3cccs3)ccc2O[C@H]1CN(C)Cc1ccc(C(F)(F)F)cc1	.	.	-9	.	.	.	.	.
12	C=CCn1c(SCC(=O)Nc2sccc2C(N)=O)nc2sc(C)c(C)c2c1=O	-11	.	-15	2	2	11	.	-18
13	Cc1sc2nc(SCC(=O)NCc3ccco3)n(CCc3ccccc3)c(=O)c2c1C	8	38*	-19	0	48*	-10	0	4
14	Cc1sc2nc(SCC(=O)NCc3ccco3)n(C)c(=O)c2c1C	-4	.	.	-4	0	-8	.	-2
15	C=CCn1c(SCC(=O)Nc2ccccc2C)nc2sc(C)c(C)c2c1=O	1	6	-12	9	24*	-2	0	-3
16	C=CCn1c(SCC(=O)NC(=O)NCc2ccco2)nc2sc(CC)cc2c1=O	-6	3	-5	2	12*	-7	2	-6
17	C[C@@H]1CN([C@@H](C)CO)C(=O)c2cc(NC(=O)c3ccccc3)ccc2O[C@@H](C)CCCCO[C@@H]1CN(C)S(=O)(=O)c1cn(C)cn1	.	.	-6	.	.	.	.	.
18	CS(=O)(=O)c1ccc(-c2cnc3c(NC=O)cc(-c4ccsc4)cn23)cc1	-62	.	-24	5	5	-7	.	-2
19	COc1ccc(-c2cnc3c(NC=O)cc(-c4ccccc4)cn23)cc1OC	-35	5	-6	7	27*	13	8	-35
20	COc1ccc(-c2cnc3c(NC=O)cc(-c4ccoc4)cn23)cc1OC	-28	2	-26	6	15*	-4	9.3*	-16
21	O=CNc1cc(-c2ccsc2)cn2c(-c3ccccc3)cnc12	-45	6	-14	-12	32*	10	35*	-5
22	COc1ccc(-c2cnc3c(NC=O)cc(-c4ccc(F)cc4)cn23)cc1OC	-3	.	1	14	8	4	.	-25
23	COc1ccc(-c2cnc3c(NC=O)cc(-c4cc(OC)c(OC)c(OC)c4)cn23)cc1OC	-20	4	-11	1	30*	2	13*	-40
24	CC(C)CC#Cc1ccc([C@@H]2[C@H](CO)N3CCCCN(C(=O)c4ccc5c(c4)OCO5)C[C@@H]23)cc1	.	.	-4	.	.	.	.	.
25	C[C@@H]1CCCCO[C@@H](CN(C)S(C)(=O)=O)[C@@H](C)CN([C@H](C)CO)C(=O)c2cc(NS(=O)(=O)c3ccc(F)cc3)ccc2O1	.	.	2	.	.	.	.	.
26	C[C@@H]1CN([C@H](C)CO)C(=O)c2cc(NC(=O)Nc3ccc(C(F)(F)F)cc3)ccc2O[C@@H](C)CCCCO[C@H]1CN(C)Cc1ccc(C(=O)O)cc1	.	.	11	.	.	.	.	.
27	Nc1ccc(-n2c(N)c(C(=O)NCc3ccc4c(c3)OCO4)c3nc4ccccc4nc32)cc1	-2	4	-13	2	13*	2	1	6
28	Cc1nc(C)c(-c2ccc(SCC(=O)Nc3ccc(C)c(Cl)c3)nn2)s1	-11	6	-2	0	10*	3	3	-1
29	O=S(=O)(Nc1cccc(Cl)c1)c1ccc(-n2cccn2)cc1	1	.	-12	0	3	0	.	-1
30	Cc1ccc(NS(=O)(=O)c2ccc(-n3cccn3)cc2)cc1Cl	-1	8	-17	5	13*	-3	0	13
31	O=C(Nc1ccccc1-c1ccccc1)c1cc(C(F)(F)F)cc(C(F)(F)F)c1	1	4	-6	-6	17*	19	-1	13
32	C[C@@H]1CCCCO[C@H](CN(C)C(=O)Nc2ccccc2)[C@H](C)CN([C@H](C)CO)C(=O)c2cc(NC(=O)c3ccccc3)ccc2O1	.	.	9	.	.	.	.	.
33	O=C(C[C@@H]1C[C@H]2c3cc(NS(=O)(=O)c4ccc(F)cc4)ccc3O[C@H]2[C@@H](CO)O1)N1CCCCC1	.	.	6	.	.	.	.	.
34	O=C(CNCCC1=CCCCC1)Nc1ccc(N2CCCCCC2)cc1	10	16	2	-6	13*	6	9.4*	6
35	CCc1ccc(OCC(=O)Nc2cccc3nsnc23)cc1	0	.	.	12	1	-10	.	2
36	Cc1ccccc1OCC(=O)Nc1cccc2nsnc12	7	3	-1	-9	11*	14	0	3

# Source: PubChem
